# Compound activity from PubChem BioAssay.
# Sampled rows, rich in hits. Any-hit rate of the full collection: about 2.8%.
# miR-122 sensor: miR-122 inhibition in Huh7 cells. Huh7 miR-122 Renilla luciferase sensor, 48 h; neutral wells = 0, positive control = 100. activation (reporter increase), % at 12.5 µM. hit rate 0.3% among 340,000. AID 602342;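 active means mean replicate activation score at least 90 and every replicate individually at or above 90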;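 further: higher luciferase means less miR-122 activity so hits act as miR-122 inhibitors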
# Yeast UUG start-1: alters start codon recognition fidelity in yeast. S. cerevisiae UUG-firefly luciferase reporter, luminescence/redox ratio. 350,000 tested, 0.13% active. activity score, % at 18.7 µM. AID 602363;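 active means replicate mean at a twofold rise or more, about +100% in these data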;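 further: firefly luciferase made from a UUG start codon reports start codon fidelity; reporter light over untreated wells divided by growth signal over untreated wells; some hits fall short of that in this replicate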
# esBAF inh: inhibitors of esBAF chromatin remodeling in mouse ES cells | hit rate 2% among 350,000 | reporter increase, % at 12.5 µM | AID 602393 | Bmi1-luciferase knock-in reporter, 24 h; 100% = twice the neutral-well signal; in the data active means activation above about 40%;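 further: 0% = median of the plate's neutral control wells and 100% = double that signal; a rise in the Bmi1 reporter signal indicates esBAF inhibition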
# MITF act: increases MITF-driven TRPM1 promoter luciferase signal | SK-MEL-5 TRPM1-promoter luciferase, 24 h; % of positive control, neutral wells = 0 | activation, % at 12.5 µM | AID 588334 | hit rate 0.75% among 300,000;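 active means mean activation of at least 80% with every replicate also reaching 80%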;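 further: 0% = neutral control wells and 100% = parthenolide positive control wells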
# Wnt bcat act: activates Wnt/beta-catenin signaling in a reporter cell assay; activator, plate reader; activation, % at 9.35 µM; hit rate 1.2% among 300,000; AID 743398; in the data active means activation above about 30%, passing the limit was not always enough;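 further: 0% = neutral control wells and 100% = positive control wells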
# PglD DTNB: inhibitors of Campylobacter jejuni PglD acetyltransferase. purified PglD enzyme, DTNB colorimetric CoA detection. inhibition, % at 12.5 µM. hit rate 0.098% among 360,000. AID 602405; in the data active means inhibition above about 16%, passing the limit was not always enough
# Yeast UUG start-2: modulators of start codon recognition fidelity in yeast; shares compounds with Yeast UUG start-1; S. cerevisiae UUG-start firefly luciferase, luminescence, 4 h; 100% means double the DMSO signal; activation, % at 38 µM; 540 tested, under 10 active;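 active means signal increase whose fitted curve reaches an absolute level of 40 at a concentration under 10 µM; inactive means activity opposite to the expected increase, or the rest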
# esBAF Ring1 qPCR: de-represses Ring1 in mouse ESCs, confirming esBAF inhibition. shares compounds with esBAF inh. mouse ESC E14, Ring1 mRNA RT-qPCR fold change. fold change at 33 µM. 550 tested, under 10 active. AID 743176;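 active means Ring1 gene expression raised more than 2-fold over untreated cells in both replicates at either tested dose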;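 further: Ring1 transcript normalised to actin housekeeping signal by TaqMan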
# Fgf4 repress: confirmation of esBAF inhibitors: Fgf4 repression in mouse ESCs; hit rate 4% among 550; mouse ESC E14, Fgf4 mRNA qPCR fold change; stronger effect = lower value; Fgf4 expression fold change at 33 µM; shares compounds with esBAF inh;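 active means Fgf4 expression under 0.8 fold of control in both repeat measurements at one or both tested doses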;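 further: Fgf4 transcript normalised to actin in duplex TaqMan qPCR; cells exposed to compound for 24 h before lysis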
# esBAF Bmi1 qPCR: confirmation of esBAF inhibitors: Bmi1 de-repression in mouse ESCs | shares compounds with esBAF inh | mouse ESE14 ES cells, Bmi1 mRNA qPCR fold; stronger effect = higher value | fold change at 33 µM | 550 tested, under 10 active | AID 743180;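 active means Bmi1 expression fold change above 6 at either tested concentration, seen in replicate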
# A549 tox SP: kills or reduces viability of A549 cells; shares compounds with esBAF inh; A549 cytotoxicity, plate reader; cell viability change % (negative = cytotoxic), % at 25 µM, hits read low; 550 tested, under 10 active; call rule not given here
# HepG2 tox SP: HepG2 cell cytotoxicity at single point | shares compounds with esBAF inh | plate reader; stronger effect = lower value | activity change, negative = inhibition, % at 25 µM | hit rate 4% among 550 | AID 743189; in the data active means activity change below about -50%
# HEK293 tox SP: cytotoxicity in HEK293 cells | shares compounds with esBAF inh | plate reader | activity change, negative = inhibition, % at 25 µM, hits read low | hit rate 3% among 550; in the data active means activity change below about -38%, passing the limit was not always enough
# * marks the source's active call; other numbers are inactive results; i = inactive; / = no result; [ ] = another dose, or the depositor's remark.
SMILES,miR-122 sensor,Yeast UUG start-1,esBAF inh,MITF act,Wnt bcat act,PglD DTNB,Yeast UUG start-2,esBAF Ring1 qPCR,Fgf4 repress,esBAF Bmi1 qPCR,A549 tox SP,HepG2 tox SP,HEK293 tox SP
C[C@@H]1CCCCO[C@H](CN(C)Cc2ccc(C(=O)O)cc2)[C@H](C)CN([C@H](C)CO)C(=O)c2cc(NS(=O)(=O)c3cn(C)cn3)ccc2O1,2[16.7 µM],7,4,/,/,-4,/,/,/,/,/,/,/
CN(C[C@H]1[C@H](c2ccccc2)[C@@H](CO)N1C(=O)c1ccccc1)C(=O)C1CC1,6[16.7 µM],156*,-1,/,/,2,i,/,/,/,/,/,/
COc1ccc(-c2oc(NC(=O)CCl)c(C#N)c2-c2ccc(OC)cc2)cc1,-2,308*,-8,-48,0,3,14,/,/,/,/,/,/
COc1ccc(-c2oc(NC(=O)CSc3ncn[nH]3)c(C#N)c2-c2ccc(OC)cc2)cc1,/,/,/,-1,-2,/,/,/,/,/,/,/,/
CCc1ccc(/C=N/NC(=O)c2cc(C3CC3)nc3ccccc23)s1,83,307*,-17,-29,10,-1,-4,/,/,/,/,/,/
N=c1c(C(=O)NC2CCCC2)cc2c(=O)n3ccccc3nc2n1CCCN1CCOCC1,-4,-6,-6,-5,-1,3,/,/,/,/,/,/,/
N=c1c(C(=O)NC2CCCC2)cc2c(=O)n3ccccc3nc2n1CCN1CCOCC1,0,474*,1,-2,-4,-6,-9,/,/,/,/,/,/
Nc1c(-c2ccccc2)nc(Cl)nc1-c1ccccc1,-10,133*,-6,/,1,-6,1,/,/,/,/,/,/
CCOc1ccccc1Nc1nc2ccccc2n1C(C)C,-19,-4,8,6,-5,6,4,/,/,/,/,/,/
CC(C)c1ccc(CCNC(=O)c2ccc([N+](=O)[O-])cc2)cc1,10,406*,-6,-2,-4,-1,1,/,/,/,/,/,/
CO[C@@H]1CN(C)C(=O)c2ccc(NS(=O)(=O)c3cccc(Cl)c3)cc2OC[C@H](C)NC[C@@H]1C,/,/,0,/,/,0,/,/,/,/,/,/,/
O=C(COC(=O)c1cc2ccccc2o1)c1ccccc1,-1,-4,-2,-3,/,2,10,/,/,/,/,/,/
CN1C(=O)c2cc(NS(=O)(=O)c3ccccc3Cl)ccc2OC[C@@H]2O[C@@H](CC(=O)O)CC[C@H]21,2[16.7 µM],-1,1,/,/,1,/,/,/,/,/,/,/
O=C(CN1CCOCC1)N1CCN(c2ccc([N+](=O)[O-])cc2)CC1,/,/,/,15,0,/,-6,/,/,/,/,/,/
CCCNC(=O)C[C@@H]1CC[C@@H]2[C@H](COc3ccc(NC(=O)c4cscn4)cc3C(=O)N2C)O1,-3[16.7 µM],/,-1,/,/,/,/,/,/,/,/,/,/

# An excerpt of these results, as labelled records:
smiles: N=c1c(C(=O)NC2CCCC2)cc2c(=O)n3ccccc3nc2n1CCCN1CCOCC1
  miR-122 sensor = -4 | Yeast UUG start-1 = -6 | esBAF inh = -6 | MITF act = -5 | Wnt bcat act = -1 | PglD DTNB = 3 | Yeast UUG start-2 = / | esBAF Ring1 qPCR = / | Fgf4 repress = / | esBAF Bmi1 qPCR = / | A549 tox SP = / | HepG2 tox SP = / | HEK293 tox SP = /

smiles: Nc1c(-c2ccccc2)nc(Cl)nc1-c1ccccc1
  miR-122 sensor = -10 | Yeast UUG start-1 = 133* | esBAF inh = -6 | MITF act = / | Wnt bcat act = 1 | PglD DTNB = -6 | Yeast UUG start-2 = 1 | esBAF Ring1 qPCR = / | Fgf4 repress = / | esBAF Bmi1 qPCR = / | A549 tox SP = / | HepG2 tox SP = / | HEK293 tox SP = /

smiles: O=C(CN1CCOCC1)N1CCN(c2ccc([N+](=O)[O-])cc2)CC1
  miR-122 sensor = / | Yeast UUG start-1 = / | esBAF inh = / | MITF act = 15 | Wnt bcat act = 0 | PglD DTNB = / | Yeast UUG start-2 = -6 | esBAF Ring1 qPCR = / | Fgf4 repress = / | esBAF Bmi1 qPCR = / | A549 tox SP = / | HepG2 tox SP = / | HEK293 tox SP = /

smiles: N=c1c(C(=O)NC2CCCC2)cc2c(=O)n3ccccc3nc2n1CCN1CCOCC1
  miR-122 sensor = 0 | Yeast UUG start-1 = 474* | esBAF inh = 1 | MITF act = -2 | Wnt bcat act = -4 | PglD DTNB = -6 | Yeast UUG start-2 = -9 | esBAF Ring1 qPCR = / | Fgf4 repress = / | esBAF Bmi1 qPCR = / | A549 tox SP = / | HepG2 tox SP = / | HEK293 tox SP = /

# New compounds follow
SMILES,miR-122 sensor,Yeast UUG start-1,esBAF inh,MITF act,Wnt bcat act,PglD DTNB,Yeast UUG start-2,esBAF Ring1 qPCR,Fgf4 repress,esBAF Bmi1 qPCR,A549 tox SP,HepG2 tox SP,HEK293 tox SP
O=C(Nc1ccc2c(c1)C(=O)c1ccccc1-2)c1ccccc1,2,-15,94*,39,-2,-4,/,1.1,0.84,1.4,-5,-23,-11
CNC(=O)C[C@H]1CC[C@@H]2[C@H](COC[C@@H](O)CN2Cc2ccc(C(F)(F)F)cc2)O1,-1[16.7 µM],/,-5,/,/,-3,/,/,/,/,/,/,/
Cc1ccc(S(=O)(=O)Nc2ccc3c(c2)C(=O)N([C@H](C)CO)C[C@H](C)[C@@H](CN(C)S(=O)(=O)c2c(C)noc2C)OCCCC[C@H](C)O3)cc1,2[16.7 µM],14,5,/,/,-3,/,/,/,/,/,/,/
C=CCOc1ccccc1/C=N/NC(=O)c1ccc(Cl)cc1Cl,-4,-15,-2,2,2,2,/,/,/,/,/,/,/
COc1cc(C(=O)Oc2ccccc2/C=N/NC(=O)c2ccc(Cl)cc2Cl)cc(OC)c1OC,-23,2,47*,21,/,2,/,1.1,1,8.4*,-8,9,-5
CCNC(=O)[C@@H]1[C@@H](CO)[C@@H]2Cn3c(ccc(C4=CCCC4)c3=O)[C@@H]2N1CC1CC1,-1[16.7 µM],/,4,/,/,2,/,/,/,/,/,/,/
COc1ccc(OCc2cnc(Cl)s2)cc1,-6,-7,29,40,2,-1,/,/,/,/,/,/,/
Cc1ccc(OCc2cnc(Cl)s2)c(C)c1,2,-6,84*,77,5,0,/,1.1,0.95,1.8,2,-36,-6
O=C1CCCc2c1sc1nc3n(c(=O)c21)CCCCC3,-10,0,68*,33,17,1,/,0.98,0.91,1.3,-7,-62*,-14
C[C@H](CO)N1C[C@H](C)[C@@H](CN(C)S(=O)(=O)c2ccc(Cl)cc2)OCCCC[C@H](C)Oc2ccc(NS(=O)(=O)c3cn(C)cn3)cc2C1=O,0[16.7 µM],8,6,/,/,2,/,/,/,/,/,/,/
CNC[C@H]1Oc2c(NS(=O)(=O)c3cn(C)cn3)cccc2C(=O)N([C@H](C)CO)C[C@H]1C,-3[16.7 µM],-13,-4,/,/,7,/,/,/,/,/,/,/
O=C1C(=NO)CCCc2ccccc21,/,-14,14,8,-2,6,/,/,/,/,/,/,/
O=C1C(=C2CCc3ccccc32)Cc2ccccc21,1,-14,71*,/,5,-1,/,1.2,1.1,1.5,-3,22,-3
CS(=O)(=O)N1CCN(c2nc3ccccc3s2)CC1,/,-3,65*,67,/,-5,/,1.1,1.1,1.1,-11,-16,-7
CC(C)NC(=O)Nc1cccc2c1O[C@@H](CN(C)C(=O)NC(C)C)[C@@H](C)CN([C@@H](C)CO)C2=O,4[16.7 µM],-15,-5,/,/,-1,/,/,/,/,/,/,/
COc1ccc2c(=O)c3ccccc3oc2c1,-6,-6,58*,104*,2,2,/,1.4,1,1.7,-11,-4,-16
COc1ccc2c(=O)c(-c3ccc(OC)c(OC)c3)coc2c1,-2,-21,58*,95*,1,-1,/,1,0.89,1.5,-4,-60*,-14
COc1ccc2c(=O)c(N3C(=O)c4ccccc4C3=O)c(C)oc2c1,-1,-20,2,5,-1,1,/,/,/,/,/,/,/
COCCNC(=O)C[C@@H]1C[C@H]2c3cc(NS(=O)(=O)c4ccc(F)cc4)ccc3O[C@H]2[C@H](CO)O1,11[16.7 µM],0,6,/,/,4,/,/,/,/,/,/,/
O=C1c2ccccc2C2N1CCCN2C(=O)c1sc2ccccc2c1Cl (centres undefined),/,-7,64*,/,-2,2,/,1,0.95,1.8,15,-7,-25
